Test results from patent US11634412B2, “3-phosphoglycerate dehydrogenase inhibitors and uses thereof” (Raze Therapeutics, Inc., priority 2016, dated 2023).

What was measured:
[1] = molecular target: T1, Full length (FL) 3-Phosphoglycerate Dehydrogenase (PHGDH) (Homo sapiens, UniProt O43175); assay: Full length (FL) PHGDH Diaphorase coupled assay (20 uM NAD); assay type: biochemical; details: full-length PHGDH 10 nM, 30° C. 60 minutes, resorufin fluorescence
T1 construct: Full length (FL) 3-Phosphoglycerate Dehydrogenase (PHGDH) Diaphorase coupled assay (500 uM NAD)
T1 sequence (O43175 1-533): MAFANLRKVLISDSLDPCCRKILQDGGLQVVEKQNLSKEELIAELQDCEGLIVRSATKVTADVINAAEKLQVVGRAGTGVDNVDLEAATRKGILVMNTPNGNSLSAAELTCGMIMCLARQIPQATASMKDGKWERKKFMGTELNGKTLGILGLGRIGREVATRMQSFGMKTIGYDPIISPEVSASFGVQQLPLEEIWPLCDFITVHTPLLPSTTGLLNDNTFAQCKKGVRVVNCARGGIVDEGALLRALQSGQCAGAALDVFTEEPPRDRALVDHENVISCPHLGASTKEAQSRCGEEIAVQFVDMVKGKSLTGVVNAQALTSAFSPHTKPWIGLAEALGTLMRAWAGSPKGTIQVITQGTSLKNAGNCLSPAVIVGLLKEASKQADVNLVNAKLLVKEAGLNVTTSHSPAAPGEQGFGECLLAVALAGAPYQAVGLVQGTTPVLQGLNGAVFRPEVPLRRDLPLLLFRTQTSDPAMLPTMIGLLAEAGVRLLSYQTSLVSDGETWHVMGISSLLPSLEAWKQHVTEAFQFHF

[2] = molecular target: T1, Full length (FL) 3-Phosphoglycerate Dehydrogenase (PHGDH); assay: Full length (FL) PHGDH Diaphorase coupled assay (500 uM NAD); assay type: biochemical; details: full-length PHGDH 5 nM, 30° C. 60 minutes, resorufin fluorescence

Row | IC50 [1] [nM] | IC50 [2] [nM] | SMILES
1 | 1 to 1000 | – | Cn1c(C(=O)NC2(c3ccc(C(=O)O)cc3)COC2)cc2c(Cl)c(Cl)ccc21 (racemic) [I-127 e22]
2 | – | 1 to 1000 | Cn1c(C(=O)NC2(c3ccc(CC(=O)O)cc3)COC2)cc2c(Cl)c(Cl)ccc21 [I-112 e159, 2-(4-(3-(4,5-Dichloro-1-methyl-1H-indole-2-carboxamido)oxetan-3-yl)-phenyl)acetic acid]
